Values quoted from earlier work in Sander's compilation of Henry's law constants (doi:10.1016/j.chemosphere.2021.129858).

Experiment: Henry solubility constant Hcp at 298.15 K (mol/(m3 Pa))
Details: reference: Schwardt et al. (2021); cited value

For `CCl` [chloromethane], which “Henry solubility constant Hcp” value is on record?
The value was 0.001.
